Antibody variant affinities, Ab-14 light chain, assay B

Values reported by Li et al. 2023, doi:10.1038/s41467-023-39022-2 (FLAb copy).

All variants were tested on one target, the spike HR2 peptide PDVDLGDISGINAS (SARS-CoV-2).

Parent: Ab-14, a human scFv built as VH, a (GGGGS)3 linker, VL. Only the CDRs of the light chain vary.
VH: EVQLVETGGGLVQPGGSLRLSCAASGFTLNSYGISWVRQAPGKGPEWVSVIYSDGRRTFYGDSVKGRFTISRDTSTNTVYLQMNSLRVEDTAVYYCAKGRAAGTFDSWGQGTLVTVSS
VL: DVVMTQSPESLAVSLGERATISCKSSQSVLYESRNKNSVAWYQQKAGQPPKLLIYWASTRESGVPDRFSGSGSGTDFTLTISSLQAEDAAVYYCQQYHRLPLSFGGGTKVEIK

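Phage display of a naive human antibody library on the peptide gave the parent. These sequences belong to a second round, designed from the earlier measurements on random variants of the parent. Several design methods are mixed in this list. The scFvs were displayed on barcoded MATa yeast, the peptide on MATalpha yeast. After mating in shaken culture at 30 °C for 16 h, diploids were selected and their barcode pairs sequenced. The ratio of observed to expected reads was calibrated, replicate by replicate, on BCL2-family standards whose Kd was known from biolayer interferometry. The assay was run in six technical replicates.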

The parent's light chain CDRs are KSSQSVLYESRNKNSVA, WASTRES, QQYHRLPLS; each variant's own CDRs replace them letter for letter.
Variants here have at most six changes.
Kd is apparent (estimated from mating counts) and averaged on the log scale over replicates with a signal. Smaller is tighter.
"nd" marks a missing value. The strain was present, yet no cells mated with the target were sequenced in any replicate, which points to weak or no binding.
Three control strains display no target. For all light chain designs, 4% of the pairings with them gave a signal, with a median of 430 nM and one signal in twenty below 38 nM, so weak values seen in few replicates may be background. For each scFv, signals with the empty controls are counted beside the result.

With KSSQSVLQESRNKNSVA | WASTGES | QYYHRLPLS the result was nd (0 of 6 replicates; controls 2 of 18). For KYSQSVLYESNNSNSVA | SASTRES | QQYHRLPLS, the assay gave 2.4 nM (6 of 6 replicates; controls 2 of 18). Variant KSDQSVLYESQNKNSVA | WATTRES | QQYHRLPLS gave 1.0 µM (6 of 6 replicates; controls 1 of 18). For KVSQSVLYESRNKNSVA | NASTRES | QQYHRLPLG, the assay gave 510 pM (6 of 6 replicates; controls 1 of 18). For KFEQLHLYESRNKNSVA | QASTREM | QQYHRLPLS, the assay gave 2.4 nM (6 of 6 replicates; controls 1 of 18). Variant HSSPSFLYESRNKNTVA | NASTRES | QQYHRLPLS showed 25 nM (6 of 6 replicates; controls 0 of 18). Variant KSSQSVLYESYNKNSVA | GAQTRES | QQYHRLPLA gave 670 nM (3 of 6 replicates; controls 0 of 18).

Variant KSSQSVLYESRNKNHVA | GASTRES | QQYSRLPLS gave 4.9 nM (6 of 6 replicates; controls 1 of 18). Variant KLSQSNLYESRNKNSVA | WASTRED | QQYHRLPLS showed 3.9 nM (6 of 6 replicates; controls 1 of 18). With KLSQSVLYESRNKNSVA | SASTLFS | QQYHRLPLS the result was 2.0 nM (6 of 6 replicates; controls 0 of 18). For KSSQSVLYESRNKNSVA | WASTRES | QQYHRLPLH, the assay gave 200 nM (3 of 6 replicates; controls 2 of 18). For KSSQSGLYESDGKNSVA | WASTREQ | KQYHRLPLS, the assay gave nd (0 of 6 replicates; controls 0 of 18). Variant KWSMSVMGESRNKNSVA | NASTRES | QQYHRLPLS gave 1.3 nM (6 of 6 replicates; controls 0 of 18). Variant KSSQSELYESRNKNSVA | WASTREA | QQYKRLPLS showed nd (0 of 6 replicates; controls 0 of 18).

With KLQQSVLYESRNKNSVA | QASTRLS | QQYHRLPLS the result was 1.9 nM (6 of 6 replicates; controls 0 of 18). Variant HSSPSVRYESRNKNSVA | NASTREE | QQYHRLPLS showed nd (0 of 6 replicates; controls 0 of 18). Variant KVSQSDLYESRNKNAVA | EASTRES | QQYHRLPLS showed 420 pM (6 of 6 replicates; controls 1 of 18). With KSSQSVLYESRHFNSVA | AASERES | QQYHRLPLE the result was 9.2 nM (6 of 6 replicates; controls 2 of 18). Variant KLSQSVLYESRNKNSVA | NASTRLW | QQYHRLPLS gave 480 pM (6 of 6 replicates; controls 1 of 18). Variant KLSQSVLYESRNKNSVA | WASTRES | QQYARLPLS gave 41 nM (6 of 6 replicates; controls 0 of 18). Variant KLSQSVLYQSRNKNSVA | EASTRES | QQYHRLPLS showed 680 pM (6 of 6 replicates; controls 1 of 18).

Variant KLSQMVLYESRNKNSVA | NASTRES | QQYHRLPLS showed 930 pM (6 of 6 replicates; controls 5 of 18). With QSSQSVLRESRNKNSVA | WASTRES | QQVHRLPLS the result was nd (0 of 6 replicates; controls 0 of 18). With KFSQSVDYESRNKNSVA | NASTRES | QQYHRLPLS the result was 1.2 nM (6 of 6 replicates; controls 0 of 18). For KLSQSYMYESRNKNSVA | NASTRES | QQYHRLPLS, the assay gave 250 pM (6 of 6 replicates; controls 1 of 18). Variant KLVQQHLYESRNKNSVA | EASTREQ | QQYHRLPLS gave 2.2 nM (6 of 6 replicates; controls 0 of 18). Variant KLSPSVLYESRNKNSVA | EASTRES | QQYHRLPLS gave 1.5 nM (6 of 6 replicates; controls 0 of 18). With KLPQGVLYESRNKNSVA | NASTRES | QQYHRLPLS the result was 390 pM (6 of 6 replicates; controls 0 of 18).

Variant KSGQGVLYESRNKNSVA | GASTRES | QQYHRLPLI showed 1.1 nM (6 of 6 replicates; controls 1 of 18). Variant KLPQSELYESRNKNSVA | QASQRES | QQYHRLPLS showed 2.1 nM (6 of 6 replicates; controls 1 of 18). Variant KLEQSMLYESRNKNSVA | NASQRLS | QQYHRLPLS gave 490 pM (6 of 6 replicates; controls 2 of 18). For KSSQSVLYESRNKNSVA | WASTREL | MQYHEWPLS, the assay gave 100 nM (1 of 6 replicates; controls 0 of 18). With KLQQSVDYESRNKNSVA | EASTRES | QQYHRLPLS the result was 680 pM (6 of 6 replicates; controls 0 of 18). Variant KSSQSVLYESRNKNSVA | GASTREL | QQYHRLPLS gave 1.8 nM (6 of 6 replicates; controls 1 of 18). Variant KSSQSVLYESRNKNPCA | WASTRES | QQYHRLPLS gave 81 nM (1 of 6 replicates; controls 0 of 18).

With KSSQSVLLESRNKNSVA | WASTRHS | QQYHRLPLS the result was 100 nM (1 of 6 replicates; controls 0 of 18). With KSSQSVPYESRNKNSVA | EASTRMS | QQYHRLPLS the result was 690 pM (6 of 6 replicates; controls 0 of 18). Variant HFSPSVAYESRNKNSVA | NASTRES | QQYHRLPLS gave 260 pM (6 of 6 replicates; controls 0 of 18). Variant KLPQSVLYESRNKNSVA | GASTRES | QQYHRLPLS showed 690 pM (6 of 6 replicates; controls 1 of 18). With KMSQSVLAESRTKNSVA | KASTRES | QQYHRLPLS the result was 2.0 nM (6 of 6 replicates; controls 1 of 18). Variant QSSQSFLYESRNKNSVA | GASTRES | QQYHRLPLS gave 8.8 nM (6 of 6 replicates; controls 0 of 18). With KLSWSVLYESRNKNNVA | EASTRES | QQYHRLPLS the result was 230 pM (6 of 6 replicates; controls 0 of 18).

Variant KLSQSMLYESRNKNSVA | EASTRES | QQYHRLPLS showed 650 pM (6 of 6 replicates; controls 0 of 18). With KLSISYLIESRNKNSVA | EASTRES | QQYHRLPLS the result was 2.0 nM (6 of 6 replicates; controls 0 of 18). Variant KVQQSHLYESRNKNSVA | NASQRES | QQYHRLPLS showed 640 pM (6 of 6 replicates; controls 2 of 18). With KSSQQVLYESRNKNSVA | WASTREK | QQYFRLPLS the result was 16 nM (3 of 6 replicates; controls 0 of 18). With KSSQSVDYESRNKNSVA | NASTREQ | QQYHRLPLS the result was 580 pM (6 of 6 replicates; controls 0 of 18). Variant KLSWSVLYESRNKNSVA | EASTRES | QQYHRLPLS gave 1.0 nM (6 of 6 replicates; controls 0 of 18). For KSSSSVLYESRNKNNVA | NASTRES | YQYSRLPLS, the assay gave 10 nM (6 of 6 replicates; controls 1 of 18).

Variant KSSISHLYESRNKNSVA | EASTRES | QQYHRLPLS gave 1.5 nM (6 of 6 replicates; controls 1 of 18). With KSSISYLYESRNKNSVA | NGSTRES | QQYHRLPLS the result was 880 pM (6 of 6 replicates; controls 1 of 18).

The authors averaged sequences with at least three values out of six and counted those with two or fewer as poor binders.
A sequence measured in both rounds can read differently, since the two assays cover different ranges.